Target: CDK2/Cyclin A complex (Homo sapiens, UniProt P24941)
Assay: CDK2/Cyclin A assay ([32P]ATP incorporation into Rb fragment)
Format: biochemical
Details: read-out: CDK2* (Ki); Table 2

`CCOCc1cc(O)c(OC)cc1-c1ccc2c(-c3nc4ccccc4[nH]3)n[nH]c2c1` [Reference Example 24(l), 3-1H-Benzoimidazol-2-yl-6-(2-(ethoxymethyl)-5-methoxy-4-hydroxy-phenyl)-1H-indazole] showed a Ki of 55 nM.
